Sequences of proteins named here, by UniProt entry; tags and fusion partners are left off. A change or cut given only in a name is not applied to a line headed by its entry.
UniProt Q99814: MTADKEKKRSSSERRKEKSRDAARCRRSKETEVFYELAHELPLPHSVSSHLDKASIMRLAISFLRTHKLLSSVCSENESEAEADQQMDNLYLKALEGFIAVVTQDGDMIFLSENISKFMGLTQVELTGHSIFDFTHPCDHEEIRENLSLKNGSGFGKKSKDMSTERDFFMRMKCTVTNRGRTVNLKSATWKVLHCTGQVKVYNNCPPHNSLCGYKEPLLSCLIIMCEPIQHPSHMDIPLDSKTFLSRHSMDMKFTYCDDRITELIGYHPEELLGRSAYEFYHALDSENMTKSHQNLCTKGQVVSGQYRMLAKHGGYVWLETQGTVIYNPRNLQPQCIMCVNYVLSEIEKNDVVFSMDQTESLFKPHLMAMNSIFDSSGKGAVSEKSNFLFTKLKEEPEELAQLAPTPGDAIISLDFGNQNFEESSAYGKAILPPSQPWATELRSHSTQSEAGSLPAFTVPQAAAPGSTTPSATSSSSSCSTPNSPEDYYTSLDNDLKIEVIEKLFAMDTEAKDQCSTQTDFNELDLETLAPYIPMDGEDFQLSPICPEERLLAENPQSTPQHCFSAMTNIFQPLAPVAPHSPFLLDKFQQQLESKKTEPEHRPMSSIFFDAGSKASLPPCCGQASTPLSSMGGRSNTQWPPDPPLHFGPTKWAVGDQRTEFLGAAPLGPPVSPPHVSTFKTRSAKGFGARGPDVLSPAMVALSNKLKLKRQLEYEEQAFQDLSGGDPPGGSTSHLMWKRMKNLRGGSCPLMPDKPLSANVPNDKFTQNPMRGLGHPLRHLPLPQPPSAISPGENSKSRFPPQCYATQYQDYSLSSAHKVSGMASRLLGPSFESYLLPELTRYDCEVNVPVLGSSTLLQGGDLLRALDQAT
UniProt Q96SW2: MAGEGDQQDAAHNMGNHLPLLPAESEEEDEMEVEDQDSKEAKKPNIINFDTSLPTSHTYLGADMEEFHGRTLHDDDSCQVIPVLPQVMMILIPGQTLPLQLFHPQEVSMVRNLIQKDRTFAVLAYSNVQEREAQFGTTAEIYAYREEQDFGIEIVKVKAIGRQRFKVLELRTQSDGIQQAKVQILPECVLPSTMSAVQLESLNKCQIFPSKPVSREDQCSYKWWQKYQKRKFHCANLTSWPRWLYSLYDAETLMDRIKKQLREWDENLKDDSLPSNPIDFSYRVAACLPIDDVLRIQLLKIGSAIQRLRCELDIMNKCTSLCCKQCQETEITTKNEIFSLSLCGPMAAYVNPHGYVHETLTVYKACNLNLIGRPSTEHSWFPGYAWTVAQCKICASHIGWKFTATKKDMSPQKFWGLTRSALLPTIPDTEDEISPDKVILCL

According to ChEMBL document CHEMBL5579853, “Recent progress in the development of hypoxia-inducible factor 2α (HIF-2α) modulators: Inhibitors, agonists, and degraders (2009-2024)” (Eur J Med Chem, 2024):

Biological target: Protein cereblon/Endothelial PAS domain-containing protein 1 (Homo sapiens) (UniProt Q99814+Q96SW2)
Test: PROTAC activity at CRBN/HIF-2alpha (unknown origin) at 1 uM relative to control
Assay type: protein assay

| Emax [%] | SMILES |
| --- | --- |
| 51 | CS(=O)(=O)c1ccc(OCCOCCOCCn2cc(CNc3cccc4c3C(=O)N(C3CCC(=O)NC3=O)C4=O)nn2)c2c1[C@H](O)[C@H](F)C2 (some centres not stated) |
| 54 | CS(=O)(=O)c1ccc(Oc2cc(C#N)cc(OCCOCCOCCn3cc(CNc4cccc5c4C(=O)N(C4CCC(=O)NC4=O)C5=O)nn3)c2)c2c1[C@H](O)[C@H](F)C2 (some centres not stated) |
